# Screens: PubChem, National Center for Advancing Translational Sciences (NCATS)
# DT40 TDP1 no CPT: qHTS for Inhibitors of human tyrosyl-DNA phosphodiesterase 1 (TDP1): qHTS in cells in absence of CPT | DT40 Tdp1-/- hTDP1 cells, no CPT, ATP luminescence, 48 h | Potency, µM (doses to about 46.2 µM), for inactives: top-dose activity change, negative = growth inhibition, most hits filed as inhibitors | 420,000 compounds, 15% hits; note: potency is the fitted concentration of half-maximal effect; % is set by controls: 0 for no effect and ±100 for the full control effect; nearly all actives have a fitted effect of over 55% in size
#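 Growth kinetics read by CellTiter-Glo luminescence after ≥48 hr at 37 °C. Cells: DT40 Tdp1-/- stably carrying human TDP1, 400 per well, compound exposure in the absence of CPT (DMSO vehicle).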
# TDP1 block: blocks human tyrosyl-DNA phosphodiesterase 1; Q9NUW8; recombinant TDP1, AlphaScreen DNA substrate cleavage; Potency, µM (series often up to 130 µM), for the others: at the highest dose activity change, negative = inhibition, usual class: inhibitors; 350,000 compounds, 0.28% hits; AID 485290; note: potency is the fitted concentration of half-maximal effect; % is set by controls: 0 for no effect and ±100 for the full control effect; nearly all actives have a fitted effect of over 40% in size
#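 E. coli-derived human Tdp1, 1 nM final. Cpd preinc 15 min RT; substrate 15 nM final, 5 min RT; AS bead mix 10 ug/ml final, 10 min RT. Signal loss = tyrosine-FITC cleavage. No-enzyme wells = max signal.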
# uPA surface inh: inhibitors of cell surface uPA generation | Potency, µM (top dose mostly 38.3 µM), for the others: at the top dose activity change, negative = inhibition, hits mostly inhibitors | cell surface uPA generation assay, qHTS | 330,000 compounds, 0.31% hits; active = well fitted inhibition curve with a large enough effect; inconclusive = small, poorly fitted or top-dose-only effect; inactive = no such curve, though single readings can be large or run the other way; tested in mouse RAW 264.7 cells; note: potency is the fitted concentration of half-maximal effect; % is set by controls: 0 for no effect and ±100 for the full control effect; nearly all actives have a fitted effect of over 55% in size
# TDP1 cell CPT: DT40-hTDP1 cell growth loss with CPT; chicken DT40 Tdp1-/-;hTDP1 cells + 20 nM CPT, ATP luminescence, 48 h; Potency, µM (doses to about 46.2 µM), for inactives: top-dose activity change, negative = growth inhibition, actives largely listed as inhibitors; 420,000 compounds, 12% hits; note: potency is the fitted concentration of half-maximal effect; % is set by controls: 0 for no effect and ±100 for the full control effect; nearly all actives have a fitted effect of over 55% in size
#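 Cell growth measured by CellTiter-Glo luminescence after a minimum 48 h, 37 C compound exposure with 20 nM CPT in Tdp1-knockout DT40 cells stably expressing hTDP1, seeded 400/well; qHTS titration format.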
# miR-21 reporter: miR-21 reporter, rising signal | Potency, µM (highest dose often 38.3 µM), for inactives: at the highest dose reporter change, positive = more light | 340,000 tested, under 10 active | HeLa miR-21 FLuc reporter, luciferase, 48 h; active = well fitted rising curve with a large enough effect; inconclusive = small, poorly fitted or top-dose-only effect; inactive = no such curve, though single readings can be large or run the other way;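 note: % of control where 0% means no effect; miR-21 action dims this reporter so a rising signal means less miR-21 action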
#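 HeLa miR-21-FLuc reporter line, endogenous miR-21; 2000 cells/well in DMEM/10% FBS; compound titration up to ~40uM final, 48 h, 37 degree Celsius; luciferase detection reagent, 15 min lysis, CCD luminescence.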
# Active calls of the source: *; ? = inconclusive; . = no result; [ ] = dose if it differs, or a comment. Shown are actives, neighbours in structure and some others; about 16% of the full set was active somewhere. Unless noted, calls come from the whole dose curve; as a rule, active = well fitted curve in the direction sought with a large enough effect; inconclusive = small, poorly fitted or top-dose-only effect, or another doubt; inactive = no such curve, though single readings can be large; an effect the other way counts as inactive or inconclusive.
no.	SMILES	DT40 TDP1 no CPT	TDP1 block	uPA surface inh
1	CCc1nc2oc3cc(OC)ccc3c(=O)c2c(=O)n1Cc1ccco1	-28%	.	-1%
2	COc1ccc2c(=O)c3c(=O)n(Cc4ccco4)c(-c4ccco4)nc3oc2c1	?	45µM*	.
3	COc1ccc(-c2nc3oc4cc(OC)ccc4c(=O)c3c(=O)n2Cc2ccco2)cc1	23µM*	8%	0%
4	CCOC1(C)OCC(=O)[C@]2(CCC3C4CCC5=CC(=O)C=CC5(C)C4C(=O)CC32C)O1 (some centres undefined)	?	3%	7%
5	O=C(C(=O)N1CCCc2ccccc21)c1c[nH]c2ccccc12	-11%	8%	13%
6	Cc1cccc(NC(=S)N(Cc2cccs2)Cc2cc3cc(C)cc(C)c3[nH]c2=O)c1	9.2µM*	3%	4%
7	COCCNC(=S)N(Cc1cccs1)Cc1cc2cccc(C)c2[nH]c1=O	?	7%	-6%
8	COc1ccc2[nH]c(=O)c(CN(Cc3cccs3)C(=S)Nc3cccc(C)c3)cc2c1	13µM*	3%	3%
9	COc1ccc2[nH]c(=O)c(CN(Cc3cccs3)S(=O)(=O)c3cccc4nsnc34)cc2c1	10µM*	6%	.
10	O=C(CS(=O)(=O)Cc1ccccc1)Nc1ccccc1Cl	8%	3%	4%
11	Cc1ccc(S(=O)(=O)N2CCC(C)CC2)cc1[N+](=O)[O-]	-4%	-3%	.
12	CN(CC(=O)Nc1ccc(S(=O)(=O)N2CCCC2)cc1)Cc1cccc(Cl)c1Cl	?	3%	-9%
13	COc1ccc(Cl)cc1NC(=O)CN(C)CC(=O)Nc1cccc(S(=O)(=O)N2CCCC2)c1	?	5%	2%
14	Cc1ccc(S(=O)(=O)N2CCCCCC2)cc1[N+](=O)[O-]	10µM*	3%	6%
15	COc1ccc(S(=O)(=O)N2CCOCC2)cc1NC(=O)CN(C)CC(=O)Nc1cccc(F)c1	-14%	0%	?

no.	TDP1 cell CPT	miR-21 reporter
1	-8%	0%
2	20µM*	-3%
3	?	1%
4	-4%	-27%
5	-27%	1%
6	13µM*	-4%
7	-15%	5%
8	21µM*	1%
9	-112%	11%
10	4%	-18%
11	6%	-8%
12	16µM*	15%
13	23µM*	.
14	?	-18%
15	-18%	.

# Record cards (already shown). Values in the order: DT40 TDP1 no CPT | TDP1 block | uPA surface inh | TDP1 cell CPT | miR-21 reporter
# Record of COc1ccc(-c2nc3oc4cc(OC)ccc4c(=O)c3c(=O)n2Cc2ccco2)cc1 → 23µM* | 8% | 0% | ? | 1%
# Record of COc1ccc(S(=O)(=O)N2CCOCC2)cc1NC(=O)CN(C)CC(=O)Nc1cccc(F)c1 → -14% | 0% | ? | -18% | .
# Record of Cc1cccc(NC(=S)N(Cc2cccs2)Cc2cc3cc(C)cc(C)c3[nH]c2=O)c1 → 9.2µM* | 3% | 4% | 13µM* | -4%

# Next part:
no.	SMILES	DT40 TDP1 no CPT	TDP1 block	uPA surface inh
16	COc1ccc(CN(C)CC(=O)Nc2cccc(S(=O)(=O)N3CCCC3)c2)cc1F	18µM*	0%	4%
17	CCN(CC(=O)Nc1cccc(S(=O)(=O)N2CCCC2)c1)CC(=O)Nc1ccccc1OC	?	-6%	1%
18	COC(=O)COc1ccc(S(=O)(=O)N2CCCCC2)cc1[N+](=O)[O-]	-13%	-4%	4%
19	CN(Cc1cccc(Cl)c1Cl)c1ccc(S(=O)(=O)N2CCCCC2)cc1[N+](=O)[O-]	21µM*	5%	-1%
20	CCN(Cc1ccc(OC)c(F)c1)C(C)C(=O)Nc1ccc(S(=O)(=O)N2CCCC2)cc1 (centres undefined)	21µM*	0%[56.1 µM]	-13%
21	CN1CCN(S(=O)(=O)c2ccc(N(C)Cc3ccc(C(F)(F)F)cc3)c([N+](=O)[O-])c2)CC1	13µM*	10%	-5%
22	C=CCOc1ccc(CN(C)c2ccc(S(=O)(=O)N3CCN(C)CC3)cc2[N+](=O)[O-])cc1	?	8%[56.1 µM]	-4%
23	COc1ccccc1CN(C)CC(=O)Nc1cccc(S(=O)(=O)N2CCCCC2)c1	23µM*	0%	?
24	Cc1cccc(C(=O)NCC(=O)Nc2ccc(S(=O)(=O)Nc3nc(C)cc(C)n3)cc2)c1	-16%	5%	8%
25	CSCCC(NC(=O)c1occc1C)C(=O)O (centres undefined)	-1%	3%	5%
26	Cc1ccc(C(=O)c2ccc(C(F)(F)F)cc2)cc1	.	6%	.
27	CC1(C(=O)NCc2ccccc2)CSCC(=O)N1C1CC1 (centres undefined)	7%	.	.

no.	TDP1 cell CPT	miR-21 reporter
16	?	.
17	-3%	-3%
18	12%	-3%
19	?	-3%
20	?	.
21	10µM*	.
22	?	.
23	16µM*	.
24	1%	-2%
25	6%	-10%
26	.	-1%
27	-3%	.
